Here are results for 2 compounds from paper PMC7689250, “Synthetic Peptide Libraries Designed From a Minimal Alpha-Helical Domain of AS-48-Bacteriocin Homologs Exhibit Potent Antibacterial Activity” (Frontiers in Microbiology, 2020).

Structures are written as SMILES.

One data set concerns sheep erythrocytes. Type of data set: cell-based. As to conditions: red cells of sheep, 1 h. The procedure:
To determine if peptide variants were hemolytic, fresh defibrinated whole sheep blood (Hardy Diagnostics) was washed three times in cold PBS, and washed blood was diluted 1:25 in PBS. Treatments were applied at a 1:10 ratio of sample:blood, where the sample was either 10% Triton, PBS, or a specific peptide concentration corresponding to concentrations used in the MIC assays. Treatments were incubated with the blood for 1 h at 37°C. Following incubation, samples were centrifuged at […] for 10 min at 4°C, and the absorbance of the supernatants at 450 nm was measured on the Synergy H1 Microplate Reader to measure the release of hemoglobin. Percent hemolysis was quantified by normalizing to the negative and positive controls.

For the next data set, the system named is P. aeruginosa (PAO1). It is filed as cell-based, Pseudomonas aeruginosa. The settings on record: for MBC: PAO1; for MIC: PAO1, 16 h. The procedure: (§1) Peptides were screened against Escherichia coli (BL21), Streptococcus pyogenes (M1T1 5448, hereby referred to as M1), Pseudomonas aeruginosa (PAO1), and Staphylococcus aureus (USA300). Overnight bacterial cultures were grown in optimal media for each species: Luria-Bertani (LB) broth for E. coli, P. aeruginosa, and S. aureus, and Todd-Hewitt (TH) broth for S. pyogenes. Cultures were pelleted and re-suspended in Mueller-Hinton (MH) broth for peptide screens or minimal inhibitory concentration (MIC) assays, with 1 × 10^6 CFU/mL bacteria added per well ([Wiegand et al., 2008]). MICs for each parent peptide were identified against each bacterial strain as previously described ([Fields et al., 2018]). Members of each peptide library were screened against each bacterial strain at half of the MIC of the corresponding parent peptide to identify library members with increased antimicrobial activity relative to the parent peptide. […] Minimal bactericidal concentrations (MBCs) were determined following the respective MIC assays by plating aliquots from wells corresponding to each peptide concentration from the 96-well plate used for the MIC on species-appropriate agar. Plates were incubated at 37°C overnight, and MBCs were identified as the lowest concentrations of peptide at which no colonies were obtained. A Synergy H1 Microplate Reader (BioTek, Winooski, VT, United States) was used to determine the MICs and identify peptides with greater antimicrobial activity than the corresponding parent peptide by measuring OD 600 of the bacterial cultures in 96-well microtiter plates.

In the next data set the test system is E. coli (BL21). It is filed as cell-based, Escherichia coli. The settings on record: for MBC: BL21; for MIC: BL21, 16 h. Here is the method:
as §1

The test system of another data set is S. aureus (USA300). Type of data set: cell-based, Staphylococcus aureus. As to conditions: for MBC: USA300; for MIC: USA300, 16 h. Here is the method: as §1
The next data set concerns S. pyogenes (M1). It is filed as cell-based, Streptococcus pyogenes. The settings on record: for MBC: M1; for MIC: M1, 16 h. Here is the method: as §1

As usually defined, the MBC is the lowest tested concentration that kills the bacteria rather than only halting them. The term MIC denotes the lowest concentration that inhibits growth of the organism. With `CC[C@H](C)[C@H](NC(=O)[C@H](CO)NC(=O)[C@H](CCC(=O)O)NC(=O)[C@H](CCCNC(=N)N)NC(=O)[C@H](Cc1c[nH]c2ccccc12)NC(=O)[C@H](C)N)C(=O)N[C@@H](CCCCN)C(=O)N[C@@H](C)C(=O)N[C@@H](Cc1ccc(O)cc1)C(=O)N[C@@H](CC(C)C)C(=O)N[C@@H](CCCCN)C(=O)N[C@@H](CCCCN)C(=O)N[C@@H](CCC(=O)O)C(=O)N[C@H](C(=O)N[C@@H](CCCCN)C(=O)N[C@@H](CCCCN)C(=O)N[C@@H](CCCCN)C(=O)NCC(=O)N[C@@H](CCCCN)C(=O)N[C@@H](CCCNC(=N)N)C(=O)N[C@H](C(=O)N[C@H](C(=O)N[C@@H](C)C(=O)N[C@@H](C)C(=O)N[C@@H](Cc1c[nH]c2ccccc12)C(=O)O)C(C)C)[C@@H](C)CC)[C@@H](C)CC` [Syn-enterocin-38], the “Percent Hemolysis” value in the data set on sheep erythrocytes came to 14.4%. In addition, the MBC is 32 µM in the data set with P. aeruginosa (PAO1), 8 µM in the data set on E. coli (BL21), greater than 128 µM in the data set on S. aureus (USA300) and 16 µM in the data set on S. pyogenes (M1). Besides, the MIC in the data set with P. aeruginosa (PAO1) was 32 µM; in the data set on E. coli (BL21), 4 µM; in the data set with S. aureus (USA300), greater than 128 µM; in the data set with S. pyogenes (M1) it was 16 µM.
As to `CC[C@H](C)[C@H](NC(=O)[C@H](CO)NC(=O)[C@H](CCC(=O)O)NC(=O)[C@H](CCCNC(=N)N)NC(=O)CNC(=O)[C@H](C)N)C(=O)N[C@@H](CCCCN)C(=O)N[C@@H](C)C(=O)N[C@@H](Cc1ccc(O)cc1)C(=O)N[C@@H](CC(C)C)C(=O)N[C@@H](CCCCN)C(=O)N[C@@H](CCCCN)C(=O)N[C@@H](CCC(=O)O)C(=O)N[C@H](C(=O)N[C@@H](CCCCN)C(=O)N[C@@H](CCCCN)C(=O)N[C@@H](CCCCN)C(=O)N[C@@H](Cc1c[nH]c2ccccc12)C(=O)N[C@@H](CCCCN)C(=O)N[C@@H](CCCNC(=N)N)C(=O)N[C@H](C(=O)N[C@H](C(=O)N[C@@H](C)C(=O)N[C@@H](C)C(=O)N[C@@H](Cc1c[nH]c2ccccc12)C(=O)O)C(C)C)[C@@H](C)CC)[C@@H](C)CC` [Syn-enterocin-46], the MBC in the data set with P. aeruginosa (PAO1) is 16 µM; in the data set with E. coli (BL21) it was 4 µM; in the data set on S. aureus (USA300), greater than 128 µM; in the data set on S. pyogenes (M1) it was 8 µM. The MIC in the data set on P. aeruginosa (PAO1) came to 8 µM; with E. coli (BL21), 2 µM; with S. aureus (USA300), 32 µM; with S. pyogenes (M1), 8 µM.
